Measured values as given in patent US7781592B2, “Thione derivative, method for the preparation thereof, and pharmaceutical composition containing the same” (CJ Cheiljedang Corporation, priority 2003, dated 2010).

Target: T1, COX-2 (Mus musculus, UniProt Q05769)
T1 construct: host or cells: RAW 264.7 cells, pre-treated with aspirin, then induced with interferon and LPS
T1 sequence (Q05769 18-604): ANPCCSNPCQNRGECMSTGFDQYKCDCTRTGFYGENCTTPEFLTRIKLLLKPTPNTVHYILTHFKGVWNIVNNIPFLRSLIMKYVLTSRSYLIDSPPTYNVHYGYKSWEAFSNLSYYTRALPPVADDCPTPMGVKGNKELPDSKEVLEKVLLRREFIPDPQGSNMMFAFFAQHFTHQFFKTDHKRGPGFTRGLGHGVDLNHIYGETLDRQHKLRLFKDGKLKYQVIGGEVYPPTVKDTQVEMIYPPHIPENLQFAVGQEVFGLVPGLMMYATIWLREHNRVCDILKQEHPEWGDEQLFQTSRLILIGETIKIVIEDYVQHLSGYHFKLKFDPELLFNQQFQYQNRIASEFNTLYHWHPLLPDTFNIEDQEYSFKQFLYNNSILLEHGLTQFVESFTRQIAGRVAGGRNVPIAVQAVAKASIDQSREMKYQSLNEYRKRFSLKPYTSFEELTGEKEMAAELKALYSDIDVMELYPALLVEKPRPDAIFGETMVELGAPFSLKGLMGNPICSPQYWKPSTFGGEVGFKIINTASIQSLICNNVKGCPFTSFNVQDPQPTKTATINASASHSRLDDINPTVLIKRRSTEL
Assay: Assay for the COX-2 inhibitory activity using Raw 264.7 cell line (PGE2 inhibition)
Assay type: cell-based
Details: RAW264.7; test compound 30 nM; RAW 264.7 cells; aspirin pre-treated, interferon + LPS 18 hours; PGE2 by EIA; read-out: Cyclooxygenase (COX) Inhibition (%) COX-2 (30 nM)
Experimental: Each well was treated with 250 μM of aspirin and incubated at 37° C. for 2 hours. After the culture media were replaced with new culture media, the new culture media were treated with a test compound (30 nM) and incubated for 30 minutes. Then, each well was treated with interferon ? (100 units/ml) and lipopolysaccharide (LPS, 100 ng/ml) and incubated for 18 hours. The culture media were transferred to other test tubes. The concentration of PGE2 was quantified by means of the EIA kit (Cayman Chemicals).
The percentages of the COX inhibition were calculated according to the following equation: % Inhibition=(concentration of PGE2 in test compound-untreated sample−concentration of PGE2 in test compound-treated sample)/(concentration of PGE2 in test compound-untreated sample)×100

- inhibition at 0.03 µM: 19%
SMILES: Cc1onc(-c2ccccc2)c1-c1ccc(S(N)(=O)=O)cc1 [Reference (Valdecoxib), Valdecoxib, reference compound]
